{"sequences": {"note": "Amino acid sequences for entries named in this document (tags omitted).", "UniProt Q01196, whole entry, looked up": "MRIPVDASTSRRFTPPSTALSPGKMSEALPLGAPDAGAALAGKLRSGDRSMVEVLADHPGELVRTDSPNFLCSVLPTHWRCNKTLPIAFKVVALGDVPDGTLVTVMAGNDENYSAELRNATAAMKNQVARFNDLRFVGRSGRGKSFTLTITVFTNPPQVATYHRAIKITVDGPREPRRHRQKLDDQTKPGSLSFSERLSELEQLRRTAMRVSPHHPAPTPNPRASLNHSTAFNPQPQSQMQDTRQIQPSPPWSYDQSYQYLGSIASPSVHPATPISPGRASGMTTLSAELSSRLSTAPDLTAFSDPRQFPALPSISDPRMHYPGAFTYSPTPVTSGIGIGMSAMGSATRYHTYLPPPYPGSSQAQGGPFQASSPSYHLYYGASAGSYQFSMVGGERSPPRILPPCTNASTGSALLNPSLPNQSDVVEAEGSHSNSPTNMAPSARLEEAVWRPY", "UniProt Q13951, whole entry, looked up": "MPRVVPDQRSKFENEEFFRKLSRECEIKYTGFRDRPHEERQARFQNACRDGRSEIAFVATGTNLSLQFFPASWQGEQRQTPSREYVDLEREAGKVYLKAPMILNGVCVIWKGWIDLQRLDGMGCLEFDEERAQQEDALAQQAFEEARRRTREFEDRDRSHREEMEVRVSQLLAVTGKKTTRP"}, "source": "PubChem BioAssay AID1434", "about": "(Sanford-Burnham Center for Chemical Genomics, 2008)", "note": "The list shows a part of the results, in another mix than the full data. Active and inactive are the calls of the source.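 How the source made its calls: active means mean inhibition across duplicate retests at 20 µM reaching about 50% (limit read from the data); inactive means the rest, inconclusive results apart.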"}
{"molecular_target": "Runt-related transcription factor 1 (Homo sapiens) + Core-binding factor subunit beta (Homo sapiens) (UniProt Q01196+Q13951)", "experiment": "disruptors of Runt domain/CBFb-SMMHC interaction – biochemical, FRET, Cerulean-Runt, Venus-CBFb-SMMHC, uHTS, primary screen (AID 1434);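 further: 0% = DMSO wells and 100% = wells with excess untagged CBFb-SMMHC; inhibitors lower the FRET ratio by blocking Runt binding to CBFb-SMMHC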", "settings": "Cerulean-Runt/Venus-CBFb-SMMHC FRET ratio 530/480, 1 h; at 20 µM; hits give high values"}
{"smiles": "CCc1ccc(OP(C)(=O)O)cc1", "inhibition": "inactive: -1.9%"}
